From ChEMBL document CHEMBL2202977, “Optimization and structure-activity relationships of a series of potent inhibitors of methicillin-resistant Staphylococcus aureus (MRSA) pyruvate kinase as novel antimicrobial agents” (Bioorg Med Chem, 2012)

Target: T1, Pyruvate kinase (Staphylococcus aureus (strain MRSA252)) (UniProt Q6GG09)
T1 sequence (whole entry): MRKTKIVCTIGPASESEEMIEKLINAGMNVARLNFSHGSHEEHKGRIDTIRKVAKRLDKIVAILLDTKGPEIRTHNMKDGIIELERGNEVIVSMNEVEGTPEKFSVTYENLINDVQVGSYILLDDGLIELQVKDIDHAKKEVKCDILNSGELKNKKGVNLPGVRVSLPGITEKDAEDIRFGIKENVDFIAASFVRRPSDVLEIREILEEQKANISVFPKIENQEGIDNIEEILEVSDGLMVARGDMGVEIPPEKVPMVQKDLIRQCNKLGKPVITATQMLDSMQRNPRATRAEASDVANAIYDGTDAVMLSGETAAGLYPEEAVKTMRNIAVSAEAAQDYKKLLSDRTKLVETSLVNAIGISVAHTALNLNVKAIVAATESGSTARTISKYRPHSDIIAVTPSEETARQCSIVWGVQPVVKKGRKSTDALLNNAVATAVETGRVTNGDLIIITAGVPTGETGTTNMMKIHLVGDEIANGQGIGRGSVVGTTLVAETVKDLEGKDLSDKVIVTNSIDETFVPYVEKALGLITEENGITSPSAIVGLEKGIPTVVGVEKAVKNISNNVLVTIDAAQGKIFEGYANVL
Assay: Inhibition of methicillin-resistant Staphylococcus aureus 252 pyruvate kinase at 10 uM by LDH assay
Conditions: Staphylococcus aureus subsp. aureus MRSA252
Summary of the method: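 MRSA pyruvate kinase activity was measured by a previously described procedure. IC50 was calculated from triplicate 15-point titrations, or averaged over n such determinations. Where no IC50 was obtained, the value is % inhibition at the highest concentration tested.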

Structure (SMILES) | inhibition
CC(=NNC(=O)c1cc(Br)ccc1O)c1cc2cc(Br)ccc2n1C (mixture of isomers) | 91.5%
CC(=NNC(=O)c1cc(Br)ccc1O)c1nc2ccccc2n1C (mixture of isomers) | 94.5%
